Results on seven substances are retold here after patent US5997871A (priority 1996, dated 1999).

In data set [1] the test system is KS Y-1 or KS-SLK cells. In words: KS clonogenic assay in methylcellulose. The data set is classed as cell-based, human. As to the method: Briefly, the KS Y-1 cells were obtained from mononuclear cells isolated from pleural effusion of an AIDS patient with KS involving the lungs. After the depletion of T lymphocytes, monocytes/macrophages and fibroblasts by the cytotoxicity method, using monoclonal antibodies against CD2, CD3, CD4, CD8, CD10 and CD14 membrane antigens and baby rabbit complement, the cells were cultured in the absence of exogenous growth factors to select for transformed cells.

Data set [2] deals with KS tumors and cells. In words: Overall anti-KS activity of hCG preparations and peptides in vitro and in vivo. As to conditions: identical amounts in International Units.
In data set [3] the test system is Kaposi's sarcoma. In words: Kaposi's sarcoma response in patients treated with hCG preparations. The class given is in vivo, human. The conditions noted are these: for response of recurrent cutaneous KS to higher dose hCG: KS relapse, week 79; for effect on visceral (lung and gastrointestinal) KS: very advanced disease, systemic therapy, within 1 to 3 months of initiating therapy.

The test system of data set [4] is KS lesions. The conditions noted are these: cited from earlier work; for effect of intralesional hCG on KS lesions: intralesional injections, 250 to 2000 IU three times per week (Gill et al., 1996; Hermans et al., 1995).
For data set [5], the system named is KS Y-1 induced tumors. Briefly: KS Y-1 tumors induced in immunodeficient mice. The conditions noted are these: 100 IU subcutaneously daily for 7 days, findings comparable to the active peptides.
Data set [6] can be described thus: Tolerability and toxicity of hCG therapy in patients.
Data set [7] concerns KS tumor. In words: Apoptosis in situ immunostaining of KS tumor biopsies from AIDS-KS patients. The class given is in vivo, human. From the text: In control KS tumors treated with diluent only or untreated KS tumor tissues (not shown), there was little evidence of cell death (FIG. 2F).
The mark [8] stands for this setting: patient PO-DU, KS-VC, 12,500 IU/week, Rx 37+ weeks.
The mark [9] stands for this setting: intralesional 250 IU three times per week (Gill et al., 1996).
The mark [10] stands for this setting: intralesional 2,000 IU three times per week (Gill et al., 1996).

“Also recorded” adds a separate entry of the source. Where two headings read alike, the source gives them in different places.

Consider pure α-chain: pure α-chain of hCG, for which, in data set [1] (pure subunit chains), the “anti-KS effect in clonogenic assays” value is “no anti-KS effect”.

With “Pregnyl: commercial hCG preparation from Organon, Inc.”, in data set [2], the “relative effectiveness among commercial hCG preparations” value is “next most effective”. The KS response entry is “PR (PR = Partial response)” in data set [3] (patient PH-GF, KS-C, 12,500 IU/week, Rx 18+ weeks); “PR (PR = Partial response)” in data set [3] (patient PH-GRX, KS-C, 12,500 IU/week, Rx 17+ weeks); “Stable” in data set [3] (patient PH-LE, KS-VC, 30,000 IU/week, Rx 12+ weeks); “PR (PR = Partial response)” in data set [3] (patient PH-OJ, KS-C, 12,500 IU/week, Rx 31+ weeks); “PR (PR = Partial response)” in data set [3] (patient PH-RF, KS-V, 15,000 IU/week, Rx 12+ weeks); “PD (PD indicates progressive disease)” in data set [3] (patient PH-SP, KS-VC, 30,000 IU/week, Rx 8+ weeks). For the same substance, the KS response result in data set [3] (patient PH-VE, KS-C, 12,500 IU/week, Rx 80+ weeks) is reported as “PR (PR = Partial response)”; in data set [3] (patient PO-BO, KS-C, 12,500 IU/week, Rx 6+ weeks), “PD (Died)”; in data set [3] (patient PO-CJP, KS-C, 12,500 IU/week, Rx 6+ weeks), “PD (PD indicates progressive disease)”; in data set [3] (setting [8]), “Stable”; in data set [3] (patient PO-FY, KS-C, 12,500 IU/week, Rx 6+ weeks), “PD (PD indicates progressive disease)”; in data set [3] (patient PO-LC, KS-VC, 12,500 IU/week, Rx 12+ weeks), “PD (PD indicates progressive disease)”. For the same substance, in data set [3] (patient PO-RB, KS-VC, 12,500 IU/week, Rx 4+ weeks), the KS response entry is on record as “PD (Died)”. In addition, the “response of recurrent cutaneous KS to higher dose hCG” value in data set [3] (patient PH-VE, 30,000 IU/week) is “regression of recurrent cutaneous KS”. Also, the “effect on visceral (lung and gastrointestinal) KS” value in data set [3] is recorded as “striking clearance”.

Regarding “APL: commercial crude hCG preparation from Wyeth-Ayerst Laboratories”, the results for the “relative effectiveness among commercial hCG preparations” value in data set [2] and in data set [2] (listed as hCG from APL (Wyeth-Ayerst)) were “usually more active” and “next most effective”, respectively. Besides, the “KS lesion response rate” value is given as 8% in data set [4] (setting [9]) and 83% in data set [4] (setting [10]). In data set [4], the “effect of intralesional hCG on KS lesions” value is reported as “partial or complete regression of KS lesions”. Also, the KS response entry in data set [3] (patient PG-1, KS-C, 35,000 IU/week, Rx 16+ weeks) is on record as “PD (PD indicates progressive disease)”; in data set [3] (patient PG-4, KS-C, 35,000 IU/week, Rx 16+ weeks), “Stable”; in data set [3] (patient PG-6, KS-C, 35,000 IU/week, Rx 12+ weeks), “Stable”; in data set [3] (patient PG-7, KS-C, 30,000 IU/week, Rx 10+ weeks), “PR (PR = Partial response)”; in data set [3] (patient PG-8, KS-C, 30,000 IU/week, Rx 12 weeks) it was “PD (PD indicates progressive disease)”; in data set [3] (patient PG-9, KS-C, 30,000 IU/week, Rx 11+ weeks) it was “Stable”. In addition, the KS response entry in data set [3] (patient PG-10, KS-C, 30,000 IU/week, Rx 12 weeks) is reported as “Stable”; in data set [3] (patient PG-11, KS-C, 30,000 IU/week, Rx 4.5 weeks), “Stable”; in data set [3] (patient PG-12, KS-C, 30,000 IU/week, Rx 19+ weeks) it was “PR (PR = Partial response)”; in data set [3] (patient PG-15, KS-C, 70,000 IU/week, Rx 8 weeks), “PD (PD indicates progressive disease)”. Moreover, in data set [3], the “effect on visceral (lung and gastrointestinal) KS” value is reported as “striking clearance”. The “cell death in KS Y-1 tumors (hematoxylin and eosin thin sections)” value in data set [5] is on record as “extensive cell death”. Also, in data set [6] (patient PH-OJ, on higher doses of hCG (APL), required hospitalization), the “reason for discontinuation of hCG therapy” value was “exacerbation of preexisting cholestasis”.

Turning to “CR127: highly purified hCG preparation (heterodimer)”, the “anti-KS activity in clonogenic assays” value in data set [1] (2 nmoles/ml, 2 KS neoplastic cell lines) was “inactive”.

As to “PA: codes P and A together: patient received both Pregnyl and APL hCG preparations”, the KS response entry in data set [3] (patient PH-SPBE, KS-C, 25,000 IU/week, Rx 29+ weeks) is given as “PR (PR = Partial response)”.

Consider “hCG from Fujisawa: non-recombinant commercial hCG preparation from Fujisawa”, for which the “relative effectiveness among commercial hCG preparations” value in data set [2] is “most effective”.

Take human chorionic gonadotropin [hCG]: the KS tumor regression entry in data set [4] (100,000 IU three times per week intramuscularly (Harris, 1995)) is listed as “not”; in data set [4] (150,000 IU to 700,000 IU three times per week intramuscularly, certain KS patients (Harris, 1995)) it was “lead to KS tumor regression”. The “KS lesion response rate” value in data set [4] (setting [9]) is given as 16%; in data set [4] (setting [10]), 83%. In addition, in data set [4], the “effect of intralesional hCG on KS lesions” value is reported as “resulted in remissions of KS lesions; also recorded: cutaneous KS lesions were reduced”. Moreover, in data set [4] (systemic injection (Hermans et al., 1995)), the “effect of systemic hCG on advanced/visceral KS” value is reported as “regression of far advanced pulmonary KS in two patients; also recorded: induced regression of advanced KS disease; also recorded: regression of visceral lesions occurred in 2 KS patients”. The “regression of visceral KS” value in data set [3] (4 patients (PO-DU, PO-GE, PH-JPV, PH-RF), systemic hCG 15,000 to 30,000 IU) is no less than 75%. In data set [3] (AIDS-KS patients, intralesional or systemic injection), the “macroscopic appearance of KS lesions” value is “macroscopic regression and flattening of KS lesions”. Also, in data set [3] (Belgium patients with advanced disease, some visceral KS, systemic hCG 15,000 to 30,000 IU), the “patients showing marked responses” value is 6. Moreover, in data set [3] (Belgium patients with advanced disease, systemic hCG 15,000 to 30,000 IU, including 1 who died from opportunistic infection), the “patients who have not responded” value is “Four”. Also, the “anti-KS effect of systemic hCG therapy” value in data set [3] (PG patients (California trial) followed for more than 4 months) is listed as “substantial anti-KS effect in 4 of the patients”. The KS response result was “complete regression” in data set [3] (patient PH-GA, KS-C, 15,000 IU/week, Rx 12+ weeks (text: recorded at week 14)); “stabilization of pulmonary disease” in data set [3] (setting [8]); “complete response” in data set [3] (patient PO-GE, KS-VC, 15,000 IU/week, Rx 48+ weeks); “exhibited a KS response” in data set [3] (patients PG2 and PG5, on systemic hCG); “partial responses” in data set [3] (patients PH-JJ, PH-MH, PH-LG, PH-JPV, PG-16, PG-18); “did not respond to hCG or their disease progressed on therapy” in data set [3] (patients PO-SC and PH-LFA). Further, the KS disease status result in data set [3] (patient PH-GA, week 6) is reported as “stabilization of disease”. Also, the pulmonary function result in data set [3] (patient PH-JPV with pulmonary and gastric KS, after one month of hCG alone) is listed as “dramatically improved their pulmonary function test”. Besides, the “decline of pulmonary KS” value in data set [3] (patient PH-RF with gastric KS, on hCG, subsequent stabilization) is 75%. In data set [3] (patient PH-VE, 30,000 IU/week), the “response of recurrent cutaneous KS to higher dose hCG” value is reported as “responded; also recorded: KS lesion regression was observed”. The “status of KS lesions” value in data set [3] (patient PH-VE, intralesional therapy began at week 0, week 3) is recorded as “regression of KS lesions was observed”; in data set [3] (patient PH-VE, week 68 of hCG therapy) it was “KS lesions recurred”. For the same substance, in data set [3] (systemic protocol 35,000 IU/week, at least 4 months of follow-up), the “patients who exhibited regression of KS disease” value was 4 of 5. The “apoptosis in KS tumor thin tissue section” value in data set [7] (AIDS-KS patient, intralesional 2000 IU, 3 times weekly for 2-3 weeks) is “evidence of apoptosis in all cells”. For the same substance, the “apoptosis in situ immunostaining / histology of tumor biopsies” value in data set [7] (AIDS-KS patients, after 2-3 weeks of hCG therapy) is “evidence of apoptosis and/or, histologically, complete absence of the KS tumor”. For the same substance, in data set [6] (hCG-treated patients of Table 2), the “toxicity in treated patients” value is reported as “lack of significant toxicity”. Besides, in data set [6] (human patients, doses up to 45,000 I.U. per week), the tolerability result is “well tolerated”. In data set [6] (patient PH-OJ, following discontinuation of hCG), the “decline of alkaline phosphatase and bilirubin values” is on record as 2 fold. Moreover, the “liver findings when hCG was restarted” value in data set [6] (patient PH-OJ, preexisting cholestasis exacerbated, required hospitalization) is “marked increase in alkaline phosphatase and rise in bilirubin”. Moreover, the “adverse event leading to discontinuation” value in data set [6] (two patients, PH-DD (on concomitant anti-mycobacterial therapy) and PH-OJ (preexisting cholestasis)) was “discontinued hCG treatment because of cholestasis”.
